Our source for the in vivo cytotoxicity values is patent publication US8685394B2, “Combination of anti-CTLA4 antibody with diverse therapeutic regimens for the synergistic treatment of proliferative diseases” (Bristol-Myers Squibb Company, priority 2008, dated 2014).

The subject of the data set is in vivo cytotoxicity. Particulars: FIG. 12.

For the substance “4′-Demethylepipodophyllotoxin 9-[4,6-O-(R)-ethylidene-β-D-glucopyranoside], 4′-(dihydrogen phosphate) [Etoposide]”, the in vivo cytotoxicity result is given as “promote in vivo cytotoxicity”.
